The list shows a part of the results, in another mix than the full data. Active and inactive are the calls of the source.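 The calls were made as follows: active = inhibition above 30% in each of the two pooled mixtures holding the compound, so the lower value exceeds 30%; inactive = the rest.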
test: alternative complement pathway inhibitors, primary screen, biochemical, ELISA, human serum, orthogonally pooled compounds (AID 1235); conditions: LPS-coated ELISA, C3 deposition, tested in compound mixtures, at 5 µM, active compounds read high;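 also: 0% = serum in Mg-EGTA without compound and 100% = EDTA serum blank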
Outline: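 Assay system: human serum alternative complement pathway, C3 deposition on LPS-coated wells; Dosing: 5 µM per compound in ten-compound mixtures; Detection: Anti-C3 ELISA, OD 450 nm; Buffer or medium: Mg2+-EGTA GVB++ buffer containing human serum at 1:15 dilution; Timing: 1 h at 37 °C; Replication: two different pools per compound.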

| Structure (SMILES) | inhibition |
| --- | --- |
| CP(=O)(Oc1ccccc1)N1CCOC1=O (stereo not drawn) | inactive: 3.95% |
| COc1ccccc1OP(C)(=O)Nc1c(C)n(C)n(-c2ccccc2)c1=O (stereo not drawn) | inactive: -13.6% |
| CCN(CC)CC(O)COC(=O)C(O)(c1ccccc1)C1CCCCC1 (stereo not drawn) | inactive: 2.46% |
| COc1ccccc1OP(C)(=O)Nc1ccc(C)c(C)c1 (stereo not drawn) | inactive: 19% |
| Cc1nc2ccc3ccccc3c2o1.O=[N+]([O-])c1cc([N+](=O)[O-])c(O)c([N+](=O)[O-])c1 | inactive: 10.6% |
| CP(=O)(Nc1ccccn1)Oc1ccccc1 (stereo not drawn) | inactive: 2.58% |
| CP(=O)(Nc1ccccc1F)Oc1ccccc1 (stereo not drawn) | inactive: 7.99% |
| CN(C)CCOC(=O)C(O)(c1ccccc1)C1CCCCC1 (stereo not drawn) | inactive: -1.99% |
| CCOP(C)(=S)SCC(=O)NC(C)(CC)C(=O)O (stereo not drawn) | inactive: 10.7% |
| Cc1ccccc1NP(C)(=O)Nc1ccccc1C | inactive: -3.71% |
| CP(=O)(Nc1ccc2c(c1)OCCO2)Oc1ccccc1 (stereo not drawn) | inactive: 0.865% |
| Cc1nc2ccc3ccccc3c2s1.O=[N+]([O-])c1cc([N+](=O)[O-])c(O)c([N+](=O)[O-])c1 | inactive: 0.92% |
| Cc1ccc(C)c(NP(C)(=O)Oc2ccccc2)c1 (stereo not drawn) | inactive: 8.8% |
| COc1ccccc1OP(C)(=O)Nc1ccc(C)cc1 (stereo not drawn) | inactive: 5.92% |
| Cc1ccc(NP(C)(=O)Oc2ccccc2)c(C)c1 (stereo not drawn) | inactive: 4.62% |
| CP(=S)(Nn1cnnc1)Oc1ccccc1 (stereo not drawn) | inactive: -3.48% |
| CP(=O)(NC(=O)Nc1ccccc1)Oc1ccccc1 (stereo not drawn) | inactive: 3.82% |
| CCOP(C)(=S)SCC(=O)NC(C)C(=O)O (stereo not drawn) | inactive: -12% |
